{"source": "paper PMC3942486", "about": "“The Ansamycin Antibiotic, Rifamycin SV, Inhibits BCL6 Transcriptional Repression and Forms a Complex with the BCL6-BTB/POZ Domain” (PLoS ONE, 2014)", "molecular_target": "wild-type SMRT peptide, labelled with BODIPY TMR", "experiment": "fluorescence polarisation; fixed concentration of BODIPY TMR-labelled SMRT peptide, increasing concentration of BCL6-POZ domain; PBS, 0.05% (v/v) Triton X-100, 0.1 mg/mL BSA; room temperature; triplicate; one-site binding (hyperbola) fit", "note": "pKd: −log10 of the molar value."}
{"substance": "BCL6-POZ domain (residues 7 to 128 of human BCL6, C8Q, C67R, C84N) (from UniProt P41182 7-128) (domain or fragment; other documents disagree on this pair)", "values": [{"measurement": "pKd", "result": 5.30}]}
